{"source": "patent US20050137807A1", "about": "“Method of visualization of the ADME properties of chemical substances” (priority 2003, published 2005)", "origin": "cited, not measured here", "conditions": "water solubility, from the literature; cited from earlier work", "data": [{"molecule": "O=C(O)c1cc(/N=N/c2ccc(S(=O)(=O)Nc3ccccn3)cc2)ccc1O", "note": "[Sulfasalacine]", "values": [{"measurement": "Solubility", "result": 2.44, "unit": "µg/mL"}]}]}
